Results taken from patent publication US9663508B2, “Biaryl acyl-sulfonamide compounds as sodium channel inhibitors” (AMGEN INC., priority 2013, dated 2017).

Amino acid sequences for entries named in this document (tags omitted).
UniProt Q15858, whole entry: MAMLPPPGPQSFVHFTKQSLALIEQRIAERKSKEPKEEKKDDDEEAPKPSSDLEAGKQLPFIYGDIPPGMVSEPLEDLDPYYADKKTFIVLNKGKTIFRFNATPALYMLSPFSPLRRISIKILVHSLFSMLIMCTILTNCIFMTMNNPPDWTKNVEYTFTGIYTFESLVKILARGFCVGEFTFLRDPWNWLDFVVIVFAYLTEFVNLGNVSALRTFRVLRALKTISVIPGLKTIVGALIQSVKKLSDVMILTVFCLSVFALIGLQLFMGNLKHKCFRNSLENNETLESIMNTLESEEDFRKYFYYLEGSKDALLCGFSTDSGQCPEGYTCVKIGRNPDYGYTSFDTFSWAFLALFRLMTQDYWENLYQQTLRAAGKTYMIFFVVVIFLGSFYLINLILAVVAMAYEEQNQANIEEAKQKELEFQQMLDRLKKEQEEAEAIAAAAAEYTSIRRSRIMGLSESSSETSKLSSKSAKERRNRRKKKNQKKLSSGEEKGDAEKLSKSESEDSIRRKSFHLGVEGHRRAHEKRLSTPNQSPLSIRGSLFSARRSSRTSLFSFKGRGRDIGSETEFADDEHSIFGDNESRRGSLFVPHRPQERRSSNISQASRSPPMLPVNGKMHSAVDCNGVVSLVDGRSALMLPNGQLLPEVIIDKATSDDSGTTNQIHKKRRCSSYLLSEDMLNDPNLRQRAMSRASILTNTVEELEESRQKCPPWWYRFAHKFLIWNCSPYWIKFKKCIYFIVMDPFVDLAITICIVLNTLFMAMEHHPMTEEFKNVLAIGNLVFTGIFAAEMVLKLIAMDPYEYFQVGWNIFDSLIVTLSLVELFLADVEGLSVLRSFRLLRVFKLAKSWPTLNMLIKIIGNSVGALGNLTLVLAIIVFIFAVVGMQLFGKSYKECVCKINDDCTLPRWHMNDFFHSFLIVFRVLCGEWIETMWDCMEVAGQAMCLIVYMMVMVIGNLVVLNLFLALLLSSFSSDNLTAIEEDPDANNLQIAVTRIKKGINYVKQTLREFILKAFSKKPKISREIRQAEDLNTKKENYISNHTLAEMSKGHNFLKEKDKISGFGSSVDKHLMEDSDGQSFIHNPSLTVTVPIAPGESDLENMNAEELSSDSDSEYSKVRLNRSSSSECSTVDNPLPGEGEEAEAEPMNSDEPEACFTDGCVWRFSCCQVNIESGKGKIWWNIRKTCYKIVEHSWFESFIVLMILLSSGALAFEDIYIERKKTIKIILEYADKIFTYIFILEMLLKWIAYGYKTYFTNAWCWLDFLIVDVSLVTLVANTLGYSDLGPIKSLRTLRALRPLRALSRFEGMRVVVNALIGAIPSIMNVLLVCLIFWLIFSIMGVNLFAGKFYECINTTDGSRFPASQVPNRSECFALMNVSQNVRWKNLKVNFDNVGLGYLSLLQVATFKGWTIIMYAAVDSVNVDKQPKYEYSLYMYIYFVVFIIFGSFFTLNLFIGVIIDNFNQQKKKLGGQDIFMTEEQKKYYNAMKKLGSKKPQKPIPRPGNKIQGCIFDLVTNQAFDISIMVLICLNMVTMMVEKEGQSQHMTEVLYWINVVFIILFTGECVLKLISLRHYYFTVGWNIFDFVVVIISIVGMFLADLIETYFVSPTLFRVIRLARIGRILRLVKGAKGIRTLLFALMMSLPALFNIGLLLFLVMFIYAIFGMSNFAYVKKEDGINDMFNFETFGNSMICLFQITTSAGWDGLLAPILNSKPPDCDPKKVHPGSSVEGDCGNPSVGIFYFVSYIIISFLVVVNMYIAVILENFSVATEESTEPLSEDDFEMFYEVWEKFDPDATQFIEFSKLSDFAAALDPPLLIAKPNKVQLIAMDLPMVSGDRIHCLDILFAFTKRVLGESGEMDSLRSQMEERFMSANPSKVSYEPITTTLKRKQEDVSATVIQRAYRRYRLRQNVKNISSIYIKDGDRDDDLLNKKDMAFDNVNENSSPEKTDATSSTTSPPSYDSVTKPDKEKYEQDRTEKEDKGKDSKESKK

Molecular target: human Nav1.7 (Homo sapiens (Human), UniProt Q15858)
Assay: Nav 1.7 in vitro PatchXpress (PX) assay
Assay type: cell-based

| Compound | IC50 |
| --- | --- |
| CS(=O)(=O)NC(=O)c1ccc(-c2cnc(Oc3ccc(Cl)c(F)c3)c(Cl)c2)c(OC(F)F)c1 [Example 460, 4-(5-chloro-6-(4-chloro-3-fluorophenoxy)-3-pyridinyl)-3-(difluoromethoxy)-N-(methylsulfonyl)benzamide] | 96.2 nM |
| COc1cc(C(=O)NS(C)(=O)=O)ccc1-c1cnc(Oc2ccc(F)cc2Cl)c(Cl)c1 [Example 377, 4-(5-chloro-6-(2-chloro-4-fluorophenoxy)-3-pyridinyl)-3-methoxy-N-(methylsulfonyl)benzamide] | 61.2 nM |
